In patent US9539349B2, “Formulation, apparatus and method for stabilizing radiopharmaceuticals” (Siemens Medical Solutions USA, Inc., priority 2010, dated 2017):

Experiment: Excipient screen: protective factor (PF) for [F-18]FLT in argon sparged vials
Details: at 50 mg/mL, as compared to oxygen

For `O=C1O[C@H]([C@@H](O)CO)C(O)=C1O` [Ascorbic acid], the “stabilization of [F-18]FLT against radiolysis” value was “not as effective”.
